Measurements published in BindingDB's records for 10206545.

Chains of the proteins cited; added tags and fusions are not shown.
UniProt P41143, whole entry: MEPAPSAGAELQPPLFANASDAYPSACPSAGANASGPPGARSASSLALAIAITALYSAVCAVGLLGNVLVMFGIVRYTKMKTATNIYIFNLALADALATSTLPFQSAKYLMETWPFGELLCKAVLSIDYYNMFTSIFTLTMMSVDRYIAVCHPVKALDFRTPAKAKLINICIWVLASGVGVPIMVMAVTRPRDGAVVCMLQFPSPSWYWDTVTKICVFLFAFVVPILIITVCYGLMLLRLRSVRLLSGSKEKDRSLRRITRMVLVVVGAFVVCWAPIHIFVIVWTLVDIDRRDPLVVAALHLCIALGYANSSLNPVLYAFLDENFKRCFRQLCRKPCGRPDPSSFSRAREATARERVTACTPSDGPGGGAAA

molecular target: Delta-type opioid receptor (Homo sapiens, UniProt P41143); experiment: ASSAY_NAME: ChEBML_217729 DESCRIPTION: Binding affinity towards delta opioid receptor in guinea pig brain membranes using [3H]- CI-DPDPE as radioligand

SMILES | Ki [nM]
CC1(C)OC23CCC4(CC2C1(C)C)C1Cc2ccc(O)c5c2C4(CCN1CC1CC1)C3O5 (stereo unspecified) | 0.8
C[C@H]1CO[C@@]23CCC4(C[C@@H]12)[C@H]1Cc2ccc(O)c5c2C4(CCN1CC1CC1)[C@H]3O5 | 0.7
CC1C2CC34CCC2(OC1(C)C)C1Oc2c(O)ccc5c2C13CCN(C)C4C5 (stereo unspecified) | 4.4
CN1CC[C@]23c4c5ccc(O)c4O[C@H]2[C@@]24CC[C@@]3(C[C@@H]2C(C)(C)C(C)(C)O4)C1C5 | 4.4
C[C@@H]1CO[C@@]23CCC4(C[C@H]12)C1Cc2ccc(O)c5c2C4(CCN1CC1CC1)[C@H]3O5 | 1.2
CN1CC[C@]23c4c5ccc(O)c4O[C@H]2[C@@]24CC[C@@]3(C[C@H]2C(C)(C)C(C)(C)O4)C1C5 | 6.1
